scFv variants of Ab-14 (heavy chain) against a SARS-CoV-2 spike peptide

Binding partner: SARS-CoV-2 spike HR2 peptide, sequence PDVDLGDISGINAS.

Parent: Ab-14, a human scFv built as VH, a 15-residue (Gly4Ser)3 linker, VL. Only the CDRs of the heavy chain vary.
VH: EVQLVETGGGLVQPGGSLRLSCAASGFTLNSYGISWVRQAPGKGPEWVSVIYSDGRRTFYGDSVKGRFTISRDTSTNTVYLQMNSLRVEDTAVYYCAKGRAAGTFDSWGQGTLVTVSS
VL: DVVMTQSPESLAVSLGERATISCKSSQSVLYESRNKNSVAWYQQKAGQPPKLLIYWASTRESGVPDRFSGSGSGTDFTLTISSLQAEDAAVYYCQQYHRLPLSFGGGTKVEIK

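The starting antibody came from a phage panning campaign against this peptide. In library AAYL49, one, two or three CDR residues were substituted; doubles and triples were drawn at random. The assay is AlphaSeq: two haploid yeast populations carry antibody and antigen on their surface. After mating in shaken culture at 30 °C for 16 h, diploids were selected and their barcode pairs sequenced. Each replicate has its own calibration line, from reference interactions of the BCL2 family. There are three technical replicates.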

Positions count from residue 1 of the parent VH; D62R puts R in place of D. This list gathers variants with a substitution at D62 (VH, numbered from residue 1). Kd is apparent (estimated from mating counts) and averaged on the log scale over replicates with a signal. Smaller is tighter. Where no diploid with the target was found in any replicate, the entry reads "no signal": below detection, most likely a poor binder, though not proof of it. Three control strains display no target. For library AAYL49, 15% of the pairings with them gave a signal, with a median of 11 µM and one signal in twenty below 680 nM, so weak values seen in few replicates may be background. For each scFv, signals with the empty controls are counted beside the result. In this assay the parent's reference entry averaged 4.4 nM; its copy inside this library read 13 µM (one replicate of three).

| changes | Kd (apparent) | replicates with signal | control signals |
|---|---|---|---|
| D62R V64H R100F | 4.6 µM | 1 of 3 | 0 of 9 |
| I34E D62A V64I | no signal | 0 of 3 | 1 of 9 |
| L29G D62K V64E | 160 µM | 2 of 3 | 8 of 9 |
| T58H G61M D62I | no signal | 0 of 3 | 0 of 9 |
| G26S N30C D62M | no signal | 0 of 3 | 0 of 9 |
| G55I D62V A102D | no signal | 0 of 3 | 1 of 9 |
| S53R D62G V64P | no signal | 0 of 3 | 1 of 9 |
| S35Y D62F K65S | no signal | 0 of 3 | 1 of 9 |
| D62T R100Y | 56 nM | 3 of 3 | 0 of 9 |
| N30R F59S D62N | 230 nM | 3 of 3 | 1 of 9 |
| L29Y D62V | no signal | 0 of 3 | 0 of 9 |
| S35M R57K D62W | 51 µM | 3 of 3 | 6 of 9 |
| N30C G55Y D62Q | no signal | 0 of 3 | 0 of 9 |
| Y52W D62M R100H | no signal | 0 of 3 | 4 of 9 |
| V50H D62E S107R | 21 µM | 1 of 3 | 5 of 9 |
| N30S D62H S107C | 3.3 µM | 1 of 3 | 2 of 9 |
| G26H T28Q D62H | 670 nM | 2 of 3 | 1 of 9 |
| Y32C D62R | 33 µM | 2 of 3 | 2 of 9 |
| I34W G55P D62E | no signal | 0 of 3 | 0 of 9 |
| Y32P D62C A101H | no signal | 0 of 3 | 2 of 9 |
| S35E F59E D62P | 7.9 µM | 1 of 3 | 0 of 9 |
| S35D D62Y | no signal | 0 of 3 | 0 of 9 |
| T28V D62M A101L | 1.4 µM | 2 of 3 | 1 of 9 |
| Y60M D62A | 1.5 µM | 1 of 3 | 0 of 9 |
| S35R D62K | no signal | 0 of 3 | 2 of 9 |
| D62F R100K | no signal | 0 of 3 | 2 of 9 |
| G26I D62H A101K | no signal | 0 of 3 | 2 of 9 |
| R57E D62K V64C | no signal | 0 of 3 | 1 of 9 |
| D62S A101T G103M | no signal | 0 of 3 | 0 of 9 |
| G33R D62E R100L | 45 µM | 1 of 3 | 1 of 9 |
| F59M D62A S107Q | 55 nM | 3 of 3 | 2 of 9 |
| T28E Y60F D62M | no signal | 0 of 3 | 2 of 9 |
| S53I D62L A101L | 5.7 µM | 1 of 3 | 1 of 9 |
| T28A L29N D62Q | no signal | 0 of 3 | 2 of 9 |
| F27Q R56F D62G | no signal | 0 of 3 | 0 of 9 |
| S35Y S53M D62M | no signal | 0 of 3 | 1 of 9 |
| T58P D62Q T104K | no signal | 0 of 3 | 1 of 9 |
| V50I D62E | 42 nM | 3 of 3 | 3 of 9 |
| D54G T58E D62N | no signal | 0 of 3 | 0 of 9 |
| D62L R100T F105V | no signal | 0 of 3 | 0 of 9 |
| T58S D62N A102G | 120 nM | 3 of 3 | 0 of 9 |
| G55A D62I | no signal | 0 of 3 | 0 of 9 |
| D62L R100N A101F | 33 µM | 3 of 3 | 5 of 9 |
| D62T V64T G99P | no signal | 0 of 3 | 0 of 9 |
| D62N K65Q D106N | 1.3 µM | 3 of 3 | 1 of 9 |
| F27M D62N S63R | 180 nM | 3 of 3 | 1 of 9 |
| Y52C D62R K65Q | no signal | 0 of 3 | 0 of 9 |
| F27Q D62A S107M | 30 nM | 3 of 3 | 1 of 9 |
| I34P D62C S63D | no signal | 0 of 3 | 0 of 9 |
| T58M F59P D62N | 180 µM | 1 of 3 | 3 of 9 |
| G26Q I34P D62V | no signal | 0 of 3 | 0 of 9 |
| Y32N T58R D62C | no signal | 0 of 3 | 1 of 9 |
| G33N D54V D62Y | no signal | 0 of 3 | 0 of 9 |
| D54V D62F T104C | no signal | 0 of 3 | 0 of 9 |
| N30G D62M | 2.8 µM | 1 of 3 | 1 of 9 |
| D62Q R100D T104D | 15 µM | 1 of 3 | 1 of 9 |
| S31I D62Y | 46 µM | 1 of 3 | 1 of 9 |
| G26K S31K D62V | no signal | 0 of 3 | 0 of 9 |
| T58Q D62A S107I | 4.6 µM | 3 of 3 | 3 of 9 |
| T28D G33H D62N | no signal | 0 of 3 | 2 of 9 |
| F27Q D62T A102F | 4.0 µM | 1 of 3 | 0 of 9 |
| G33Y D62I S63Y | no signal | 0 of 3 | 0 of 9 |
| D62A R100F A102N | 2.9 µM | 2 of 3 | 0 of 9 |
| I51V F59H D62A | 160 µM | 1 of 3 | 1 of 9 |
| Y60N G61L D62C | no signal | 0 of 3 | 0 of 9 |
| D62F S63N T104P | no signal | 0 of 3 | 0 of 9 |
| D62C S63E K65F | 24 µM | 1 of 3 | 2 of 9 |
| T28A I51Q D62F | no signal | 0 of 3 | 1 of 9 |
| I51D D62S A101M | no signal | 0 of 3 | 0 of 9 |
| Y32I D62T R100P | 940 µM | 1 of 3 | 5 of 9 |
| D62V V64S S107L | 24 µM | 3 of 3 | 1 of 9 |
| R56H D62I | no signal | 0 of 3 | 4 of 9 |
| S31K Y32G D62R | 16 µM | 1 of 3 | 2 of 9 |
| D54W D62F R100S | 7.1 µM | 3 of 3 | 3 of 9 |
| F27T I51W D62G | no signal | 0 of 3 | 0 of 9 |
| S35D G55F D62Q | no signal | 0 of 3 | 0 of 9 |
| D62W | 1.7 µM | 3 of 3 | 4 of 9 |
| T28R G61F D62Y | 4.6 µM | 1 of 3 | 0 of 9 |
| G26Y D54R D62N | no signal | 0 of 3 | 0 of 9 |
| G33P F59L D62Y | no signal | 0 of 3 | 0 of 9 |

Excerpt, the final 11 entries:

| changes | Kd (apparent) | replicates with signal | control signals |
|---|---|---|---|
| Y32I D62T R100P | 940 µM | 1 of 3 | 5 of 9 |
| D62V V64S S107L | 24 µM | 3 of 3 | 1 of 9 |
| R56H D62I | no signal | 0 of 3 | 4 of 9 |
| S31K Y32G D62R | 16 µM | 1 of 3 | 2 of 9 |
| D54W D62F R100S | 7.1 µM | 3 of 3 | 3 of 9 |
| F27T I51W D62G | no signal | 0 of 3 | 0 of 9 |
| S35D G55F D62Q | no signal | 0 of 3 | 0 of 9 |
| D62W | 1.7 µM | 3 of 3 | 4 of 9 |
| T28R G61F D62Y | 4.6 µM | 1 of 3 | 0 of 9 |
| G26Y D54R D62N | no signal | 0 of 3 | 0 of 9 |
| G33P F59L D62Y | no signal | 0 of 3 | 0 of 9 |

The measurements come from Engelhart et al. 2022 (doi:10.1038/s41597-022-01779-4) through the FLAb antibody collection.